Laboratory results taken from patent US10017527B2, “KLK4 inhibitors” (Universiteit Antwerpen, priority 2014, dated 2018).

Biological target: T1, Thrombine (human plasma) (Homo sapiens, UniProt P00734)
T1 construct: purchased Sigma-Aldrich; host or cells: human plasma
Test: Thrombin inhibition, chromogenic substrate Biophen CS-21(66)
Assay type: biochemical

CCCCCCOC(=O)NC(c1ccc(NC(=N)N)cc1)P(=O)(Oc1ccccc1)Oc1ccccc1 (stereo not shown) [Compound 92, Hexyl ((diphenoxyphosphoryl)(4-guanidinophenyl)methyl)carbamate]
IC50: > 250 µM
